The results in this text go back to PubChem BioAssay AID686939 (The Scripps Research Institute Molecular Screening Center, 2013).

Each structure is given as a SMILES string. This is a selection; strong and weak results do not stand in their true shares. The source made the active and inactive calls.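 Rule for the calls: active = activation above the solvent-only control well mean plus 3 SD, averaged across control plates (cut at about 5.2% in these data); inactive = the rest.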

The assay can be described thus: GAL4-VP16 luciferase reporter activation, counter-screen for SMARCA2 (BRM) activator project, cell-based, pG5luc, luminescence, high throughput (AID 686939). The settings on record: HEK293 GAL4-VP16 pG5luc reporter, at 9.1 µM, stronger effect = higher value, scaled: DMSO wells 0%, SAHA wells 100%. The gist of the method: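 System: 293 cells carrying GAL4-VP16 plus UAS-luciferase reporter. Quantity: 2,500 transfected 293 cells per well. Incubation: 24 h exposure, 37 °C, 5% CO2, One-Glo 15 min RT. Technique: luciferase luminescence after One-Glo reagent addition. Benchmarks: DMSO and SAHA.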
With `O=C(O)c1cccc(Nc2c([N+](=O)[O-])cc([N+](=O)[O-])cc2[N+](=O)[O-])c1`, the activation is inactive: 1.09%. As to `CN(C)C(=O)c1c([N+](=O)[O-])cc([N+](=O)[O-])cc1[N+](=O)[O-]`, the activation is inactive: 0.93%.
